# From US10112926B2 (priority 2014, dated 2018)
# By UniProt entry, the sequences of proteins in these tests, tags left out. Where a name states a change or a piece, a line headed by the entry shows the natural chain unless it says otherwise.
# UniProt P42336, whole entry, looked up: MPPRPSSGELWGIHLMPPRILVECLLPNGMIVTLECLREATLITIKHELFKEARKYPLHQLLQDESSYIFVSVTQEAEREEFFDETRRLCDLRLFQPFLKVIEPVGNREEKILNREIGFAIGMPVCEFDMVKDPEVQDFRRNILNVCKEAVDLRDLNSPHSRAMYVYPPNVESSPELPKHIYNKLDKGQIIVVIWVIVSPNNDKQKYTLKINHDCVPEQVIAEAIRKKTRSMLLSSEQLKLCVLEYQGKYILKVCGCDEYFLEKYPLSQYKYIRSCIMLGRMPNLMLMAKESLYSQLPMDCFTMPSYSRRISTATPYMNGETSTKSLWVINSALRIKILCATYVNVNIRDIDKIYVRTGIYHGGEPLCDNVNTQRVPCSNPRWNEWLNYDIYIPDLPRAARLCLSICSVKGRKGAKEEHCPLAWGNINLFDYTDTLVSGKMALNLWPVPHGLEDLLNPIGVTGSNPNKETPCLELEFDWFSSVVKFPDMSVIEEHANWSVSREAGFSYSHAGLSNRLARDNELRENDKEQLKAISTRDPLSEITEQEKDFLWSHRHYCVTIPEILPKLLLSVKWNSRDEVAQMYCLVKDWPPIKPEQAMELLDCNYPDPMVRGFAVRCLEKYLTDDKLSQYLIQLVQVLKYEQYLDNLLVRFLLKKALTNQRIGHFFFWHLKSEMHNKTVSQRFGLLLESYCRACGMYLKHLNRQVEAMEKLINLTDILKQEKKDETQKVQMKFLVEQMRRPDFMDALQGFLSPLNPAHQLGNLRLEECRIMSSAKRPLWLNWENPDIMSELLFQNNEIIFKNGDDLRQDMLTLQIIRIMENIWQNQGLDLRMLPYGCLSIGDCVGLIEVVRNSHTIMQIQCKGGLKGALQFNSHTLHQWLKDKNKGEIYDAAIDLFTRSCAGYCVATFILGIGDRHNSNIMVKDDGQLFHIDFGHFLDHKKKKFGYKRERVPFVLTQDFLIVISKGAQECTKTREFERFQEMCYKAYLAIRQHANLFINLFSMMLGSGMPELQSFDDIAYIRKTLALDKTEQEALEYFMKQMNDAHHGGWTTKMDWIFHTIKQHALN
# UniProt Q8NEB9, whole entry: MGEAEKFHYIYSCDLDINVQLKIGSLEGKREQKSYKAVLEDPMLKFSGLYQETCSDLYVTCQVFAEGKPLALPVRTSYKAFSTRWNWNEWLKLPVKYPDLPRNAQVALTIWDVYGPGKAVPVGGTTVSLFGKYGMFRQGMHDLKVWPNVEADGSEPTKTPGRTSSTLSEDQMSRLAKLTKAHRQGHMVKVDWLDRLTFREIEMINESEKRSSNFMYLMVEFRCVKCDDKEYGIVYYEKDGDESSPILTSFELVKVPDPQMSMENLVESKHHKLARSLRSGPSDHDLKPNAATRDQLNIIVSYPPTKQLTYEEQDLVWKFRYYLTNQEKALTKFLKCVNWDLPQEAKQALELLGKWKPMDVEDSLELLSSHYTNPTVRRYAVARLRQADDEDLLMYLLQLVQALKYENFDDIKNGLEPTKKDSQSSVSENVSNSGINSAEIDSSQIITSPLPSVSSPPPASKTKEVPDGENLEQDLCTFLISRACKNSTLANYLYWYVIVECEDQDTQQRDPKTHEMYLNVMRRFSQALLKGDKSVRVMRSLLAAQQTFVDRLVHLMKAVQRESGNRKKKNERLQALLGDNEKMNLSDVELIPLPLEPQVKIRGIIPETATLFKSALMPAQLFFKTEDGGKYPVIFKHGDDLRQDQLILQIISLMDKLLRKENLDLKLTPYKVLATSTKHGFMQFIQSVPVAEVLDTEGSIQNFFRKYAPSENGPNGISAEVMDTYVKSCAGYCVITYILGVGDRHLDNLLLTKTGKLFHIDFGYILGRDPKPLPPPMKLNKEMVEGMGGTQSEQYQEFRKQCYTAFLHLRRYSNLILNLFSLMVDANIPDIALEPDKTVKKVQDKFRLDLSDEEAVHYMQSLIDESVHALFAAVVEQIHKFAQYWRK
# UniProt Q9UBF8: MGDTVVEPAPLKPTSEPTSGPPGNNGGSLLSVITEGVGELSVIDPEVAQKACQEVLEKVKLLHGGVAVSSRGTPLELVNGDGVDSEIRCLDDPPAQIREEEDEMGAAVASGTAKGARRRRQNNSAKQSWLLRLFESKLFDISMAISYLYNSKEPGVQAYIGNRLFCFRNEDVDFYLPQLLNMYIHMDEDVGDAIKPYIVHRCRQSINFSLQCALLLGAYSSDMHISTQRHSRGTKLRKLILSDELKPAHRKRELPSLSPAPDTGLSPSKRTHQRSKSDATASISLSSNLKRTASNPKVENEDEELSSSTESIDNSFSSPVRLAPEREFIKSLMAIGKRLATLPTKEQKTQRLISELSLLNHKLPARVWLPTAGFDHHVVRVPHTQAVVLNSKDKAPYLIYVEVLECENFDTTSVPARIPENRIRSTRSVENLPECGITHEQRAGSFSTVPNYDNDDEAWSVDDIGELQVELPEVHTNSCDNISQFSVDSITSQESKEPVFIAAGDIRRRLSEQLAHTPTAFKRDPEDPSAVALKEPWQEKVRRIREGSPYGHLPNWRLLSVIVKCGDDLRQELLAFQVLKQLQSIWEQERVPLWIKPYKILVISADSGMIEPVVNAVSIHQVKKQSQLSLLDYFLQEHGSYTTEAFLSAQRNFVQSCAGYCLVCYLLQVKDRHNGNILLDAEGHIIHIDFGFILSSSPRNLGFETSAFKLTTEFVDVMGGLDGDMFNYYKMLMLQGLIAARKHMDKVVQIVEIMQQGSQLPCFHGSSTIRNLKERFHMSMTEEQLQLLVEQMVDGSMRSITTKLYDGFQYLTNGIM
# UniProt P42338: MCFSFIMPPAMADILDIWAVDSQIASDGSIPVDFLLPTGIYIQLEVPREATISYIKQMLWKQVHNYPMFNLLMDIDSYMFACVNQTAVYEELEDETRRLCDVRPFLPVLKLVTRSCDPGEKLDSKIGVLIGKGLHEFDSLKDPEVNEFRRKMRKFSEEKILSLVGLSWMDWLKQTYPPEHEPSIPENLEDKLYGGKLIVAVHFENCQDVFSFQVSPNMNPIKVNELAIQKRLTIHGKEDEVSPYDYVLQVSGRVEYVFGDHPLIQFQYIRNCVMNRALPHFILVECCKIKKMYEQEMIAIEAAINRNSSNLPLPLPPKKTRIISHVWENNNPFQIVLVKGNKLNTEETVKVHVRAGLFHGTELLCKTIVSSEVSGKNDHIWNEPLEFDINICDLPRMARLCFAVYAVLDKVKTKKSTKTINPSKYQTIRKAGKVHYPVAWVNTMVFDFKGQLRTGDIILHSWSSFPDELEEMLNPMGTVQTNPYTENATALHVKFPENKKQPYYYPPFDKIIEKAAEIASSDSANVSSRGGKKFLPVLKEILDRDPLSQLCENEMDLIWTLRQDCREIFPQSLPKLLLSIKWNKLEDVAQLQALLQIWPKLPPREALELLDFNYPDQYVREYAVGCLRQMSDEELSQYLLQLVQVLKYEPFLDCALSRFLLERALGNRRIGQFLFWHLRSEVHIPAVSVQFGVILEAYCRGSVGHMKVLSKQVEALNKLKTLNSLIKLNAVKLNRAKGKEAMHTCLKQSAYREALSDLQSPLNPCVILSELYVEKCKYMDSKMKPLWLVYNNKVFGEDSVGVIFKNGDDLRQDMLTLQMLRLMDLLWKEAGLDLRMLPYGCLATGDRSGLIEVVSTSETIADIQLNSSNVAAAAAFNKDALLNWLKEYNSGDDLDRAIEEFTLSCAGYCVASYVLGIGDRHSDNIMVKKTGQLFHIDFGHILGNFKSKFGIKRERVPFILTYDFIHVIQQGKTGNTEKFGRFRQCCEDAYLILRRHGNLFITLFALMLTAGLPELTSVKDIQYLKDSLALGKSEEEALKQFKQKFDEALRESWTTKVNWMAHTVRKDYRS
# pIC50: −log10 of the molar value. Structures can show the parent of a compound that is named as a salt.
# Experiments:
# [1] = target: PI 3-kinase alpha (Homo sapiens (Human), UniProt P42336); conditions: read-out: Assay A PI3Kα IC50
# [2] = target: mTOR (Homo sapiens (Human), UniProt P42345); conditions: read-out: Assay G mTOR IC50
# [3] = target: Vps34 (Homo sapiens (Human), UniProt Q8NEB9); conditions: read-out: Assay C VPS34 IC50
# [4] = target: PI 4-kinase beta (Homo sapiens (Human), UniProt Q9UBF8); conditions: read-out: Assay D PI4Kβ IC50
# [5] = target: PI 3-kinase beta (Homo sapiens (Human), UniProt P42338); conditions: read-out: Assay B PI3Kβ IC50
structure (smiles),measurement,setting,value
"Cc1cc(-c2cc(-c3cc(S(=O)(=O)N4C[C@H](C)[C@@H](O)C4)ccc3C)cnc2N)on1 (relative stereo) [Example 101.3, trans-1-((3-(6-amino-5-(3-methylisoxazol-5-yl)pyridin-3-yl)-4-methylphenyl)sulfonyl)-4-methylpyrrolidin-3-ol]",pIC50,[1],6.10
"Cc1ccc(S(=O)(=O)NCCC(C)(C)O)cc1-c1cnc(N)c(-c2cnn(CC(F)(F)F)c2)c1 [Example 3, 3-(6-Amino-5-(1-(2,2,2-trifluoroethyl)-1H-pyrazol-4-yl)pyridin-3-yl)-N-(3-hydroxy-3-methylbutyl)-4-methylbenzenesulfonamide]",pIC50,[2],5.51
"Cc1cc(-c2cc(-c3cc(S(=O)(=O)N[C@H]4CC[C@H](O)CC4)ccc3C)cnc2N)on1 [Example 5.4, trans 3-(6-Amino-5-(3-methylisoxazol-5-yl)pyridin-3-yl)-N-(-4-hydroxycyclohexyl)-4-methylbenzenesulfon-amide hydrochloride]",pIC50,[2],5.52
"Cc1noc(-c2cc(-c3cc(S(=O)(=O)NCC(C)(C)O)ccc3C)cnc2N)n1 [Example 10, 3-(6-Amino-5-(3-methyl-1,2,4-oxadiazol-5-yl)pyridin-3-yl)-N-(2-hydroxy-2-methylpropyl)-4-methylbenzenesulfonamide, hydrochloride salt]",pIC50,[2],5.38
"Cc1ncc(-c2cc(-c3cc(S(=O)(=O)NC4CC5(CC(O)C5)C4)ccc3C)cnc2N)s1 (stereo not shown) [Example 28, 3-(6-Amino-5-(2-methylthiazol-5-yl)pyridin-3-yl)-N-(6-hydroxyspiro[3.3]heptan-2-yl)-4-methylbenzenesulfonamide]",pIC50,[2],6.89
"Cc1cc(-c2cc(-c3cc(S(=O)(=O)NCC4(CO)CCOCC4)ccc3C)cnc2N)on1 [Example 37.1, 3-(6-Amino-5-(3-methylisoxazol-5-yl)pyridin-3-yl)-N-((4-(hydroxymethyl)tetrahydro-2H-pyran-4-yl)methyl)-4-methylbenzenesulfonamide]",pIC50,[2],5.06
same,pIC50,[3],< 5.00
"Cc1cc(-c2cc(-c3cc(S(=O)(=O)NC4CCOCC4)ccc3C)cnc2N)on1 [Example 37.8, 3-(6-Amino-5-(3-methylisoxazol-5-yl)pyridin-3-yl)-4-methyl-N-(tetrahydro-2H-pyran-4-yl)benzenesulfonamide]",pIC50,[2],5.19
same,pIC50,[4],5.24
"Cc1cc(-c2cc(-c3cc(S(=O)(=O)N4CC(C)(O)C4)ccc3C)cnc2N)on1 [Example 37.28, 1-((3-(6-Amino-5-(3-methylisoxazol-5-yl)pyridin-3-yl)-4-methylphenyl)sulfonyl)-3-methylazetidin-3-ol]",pIC50,[1],6.24
"Cc1cc(-c2cc(-c3cc(S(=O)(=O)NC[C@@H]4CCCO4)ccc3C)cnc2N)on1 [Example 40, (S)-3-(6-Amino-5-(3-methylisoxazol-5-yl)pyridin-3-yl)-4-methyl-N-((tetrahydrofuran-2-yl)methyl)benzenesulfonamide]",pIC50,[1],6.36
"Cc1ccc(S(=O)(=O)NCC(C)(C)O)cc1-c1cnc(N)c(-c2cnn(C)c2C)c1 [Example 61, 3-(6-Amino-5-(1,5-dimethyl-1H-pyrazol-4-yl)pyridin-3-yl)-N-(2-hydroxy-2-methylpropyl)-4-methylbenzenesulfonamide]",pIC50,[2],5.17
same,pIC50,[4],5.77
"Cc1ccc(S(=O)(=O)NCC(C)(C)O)cc1-c1cnc(N)c(-c2cn(C)nn2)c1 [Example 63, 3-(6-Amino-5-(1-methyl-1H-1,2,3-triazol-4-yl)pyridin-3-yl)-N-(2-hydroxy-2-methylpropyl)-4-methylbenzenesulfonamide hydrochloride]",pIC50,[2],5.28
"Cc1cccc(NS(=O)(=O)c2ccc(C)c(-c3cnc(N)c(-c4nc(C)no4)c3)c2)n1 [Example 72, 3-(6-Amino-5-(3-methyl-1,2,4-oxadiazol-5-yl)pyridin-3-yl)-4-methyl-N-(6-methylpyridin-2-yl)benzenesulfonamide]",pIC50,[2],6.43
"Cc1noc(-c2cc(-c3cc(S(N)(=O)=O)ccc3C)cnc2N)n1 [Example 75, 3-(6-Amino-5-(3-methyl-1,2,4-oxadiazol-5-yl)pyridin-3-yl)-4-methylbenzenesulfonamide]",pIC50,[2],5.09
same,pIC50,[3],< 5.00
"Cc1ccc(S(=O)(=O)N[C@H]2CC[C@H](O)CC2)cc1-c1cnc(N)c(-c2nc(CC(F)(F)F)no2)c1 [Example 78, trans-3-(6-Amino-5-(3-(2,2,2-trifluoroethyl)-1,2,4-oxadiazol-5-yl)pyridin-3-yl)-N-((1r,4r)-4-hydroxycyclohexyl)-4-methylbenzenesulfonamide]",pIC50,[1],7.05
"Cc1ccc(S(=O)(=O)NCC(C)(C)O)cc1-c1cnc(N)c(-n2cncn2)c1 [Example 81, 3-(6-Amino-5-(1H-1,2,4-triazol-1-yl)pyridin-3-yl)-N-(2-hydroxy-2-methylpropyl)-4-methylbenzenesulfonamide hydrochloride]",pIC50,[2],5.18
"Cc1ccc(S(=O)(=O)NCC(C)(C)O)cc1-c1cnc(N)c(-c2cnco2)c1 [Example 94a, 3-(6-amino-5-(oxazol-5-yl)pyridin-3-yl)-N-(2-hydroxy-2-methylpropyl)-4-methylbenzenesulfonamide]",pIC50,[2],5.48
same,pIC50,[4],5.42
"Cc1ncc(-c2cc(-c3cc(S(=O)(=O)NCC4COC4)ccc3C)cnc2N)o1 [Example 104.3, 3-(6-amino-5-(2-methyloxazol-5-yl)pyridin-3-yl)-4-methyl-N-(oxetan-3-ylmethyl)benzenesulfon-amide]",pIC50,[5],5.57
"Cc1ncc(-c2cc(-c3cc(S(=O)(=O)NC4CC4)ccc3C)cnc2N)o1 [Example 104.14, 3-(6-amino-5-(2-methyloxazol-5-yl)pyridin-3-yl)-N-cyclopropyl-4-methylbenzenesulfon-amide]",pIC50,[4],5.92
same,pIC50,[3],5.92
"Cc1ncc(-c2cc(-c3cc(S(=O)(=O)NCC4(O)CC4)ccc3C)cnc2N)o1 [Example 114.1, 3-(6-amino-5-(2-methyloxazol-5-yl)pyridin-3-yl)-N-((1-hydroxycyclopropyl)methyl)-4-methylbenzenesulfon-amide]",pIC50,[5],5.85
